Assay results taken from PMC3335088 (PLoS ONE, 2012).

Protein sequences, listed by entry. Tags and fused reporters are not part of them.
UniProt P33993, whole entry: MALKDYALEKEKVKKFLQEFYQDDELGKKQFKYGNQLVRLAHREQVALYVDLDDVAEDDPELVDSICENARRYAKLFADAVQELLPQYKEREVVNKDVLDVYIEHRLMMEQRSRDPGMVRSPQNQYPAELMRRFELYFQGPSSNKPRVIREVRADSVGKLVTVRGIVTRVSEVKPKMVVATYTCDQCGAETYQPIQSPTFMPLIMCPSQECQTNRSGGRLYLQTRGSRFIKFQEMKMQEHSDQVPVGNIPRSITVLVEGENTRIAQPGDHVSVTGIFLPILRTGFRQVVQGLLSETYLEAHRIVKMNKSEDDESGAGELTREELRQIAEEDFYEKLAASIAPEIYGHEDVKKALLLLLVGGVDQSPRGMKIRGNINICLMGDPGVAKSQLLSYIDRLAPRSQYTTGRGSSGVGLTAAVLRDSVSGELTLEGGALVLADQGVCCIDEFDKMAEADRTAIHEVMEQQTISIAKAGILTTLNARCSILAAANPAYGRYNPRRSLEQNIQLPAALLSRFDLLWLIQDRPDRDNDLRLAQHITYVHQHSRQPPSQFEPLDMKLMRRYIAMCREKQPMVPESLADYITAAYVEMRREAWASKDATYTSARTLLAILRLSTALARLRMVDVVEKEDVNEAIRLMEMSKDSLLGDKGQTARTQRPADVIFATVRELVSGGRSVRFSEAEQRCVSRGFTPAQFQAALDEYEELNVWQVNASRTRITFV

Target: T1, MCM7 with 6-His tag in combination with a triple FLAG tag (human, UniProt P33993 1-719)
T1 construct: MCM7; The methods describe one MCM7 baculovirus with both tags; also called FLAG-MCM7; FLAG-tagged MCM7; source: High Five insect cells, baculovirus, in lysate; not shown: His6, N-terminal, kept; triple FLAG, N-terminal, kept
Assay: co-sedimentation; MCM-BP-MCM pairs co-expressed in insect cells and isolated on affinity resin; 150-200 µg on a 12 ml 15-35% glycerol gradient, 20 mM Tris-HCl pH 7.5, 100 mM NaCl, 0.1 mM EDTA, 2 mM DTT; 34,000 rpm SW41, 16 hours, 4°C; silver staining
Conditions: both partners purified

B1: MCM-BP with no tags (natural protein, human, UniProt Q9BTE3 1-642, looked up)
chain: MPCGEDWLSHPLGIVQGFFAQNGVNPDWEKKVIEYFKEKLKENNAPKWVPSLNEVPLHYLKPNSFVKFRCMIQDMFDPEFYMGVYETVNQNTKAHVLHFGKYRDVAECGPQQELDLNSPRNTTLERQTFYCVPVPGESTWVKEAYVNANQARVSPSTSYTPSRHKRSYEDDDDMDLQPNKQKDQHAGARQAGSVGGLQWCGEPKRLETEASTGQQLNSLNLSSPFDLNFPLPGEKGPACLVKVYEDWDCFKVNDILELYGILSVDPVLSILNNDERDASALLDPMECTDTAEEQRVHSPPASLVPRIHVILAQKLQHINPLLPACLNKEESKTCKFVSSFMSELSPVRAELLGFLTHALLGDSLAAEYLILHLISTVYTRRDVLPLGKFTVNLSGCPRNSTFTEHLYRIIQHLVPASFRLQMTIENMNHLKFIPHKDYTANRLVSGLLQLPSNTSLVIDETLLEQGQLDTPGVHNVTALSNLITWQKVDYDFSYHQMEFPCNINVFITSEGRSLLPADCQIHLQPQLIPPNMEEYMNSLLSAVLPSVLNKFRIYLTLLRFLEYSISDEITKAVEDDFVEMRKNDPQSITADDLHQLLVVARCLSLSAGQTTLSRERWLRAKQLESLRRTRLQQQKCVNGNEL
notes: MCM-BP, human; made from pfastBacHT.MCM-BP by excising the 6-His tag; also called untagged MCM-BP; nontagged MCM-BP; source: High Five insect cells, baculovirus, co-expressed, in lysate
  binding result: binds
